Laboratory results taken from PMC12216609, “Inhibitors of eIF1A-ribosome interaction unveil uORF-dependent regulation of translation initiation and antitumor and antiviral effects” (The EMBO Journal, 2025).
Several values for one entry are separate records, joined by “and”; a condition that tells them apart may be missing. Equal entries are not always repeated. Where two headings read alike, the source gives them in different places.

Chains of the proteins cited; added tags and fusions are not shown. Residues count along the entry.
UniProt P47813, whole entry: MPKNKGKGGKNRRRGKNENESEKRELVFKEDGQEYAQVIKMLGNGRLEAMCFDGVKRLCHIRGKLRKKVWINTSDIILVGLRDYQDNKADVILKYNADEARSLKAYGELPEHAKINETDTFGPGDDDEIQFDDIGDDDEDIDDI
UniProt P47813, 31-144 limits assumed: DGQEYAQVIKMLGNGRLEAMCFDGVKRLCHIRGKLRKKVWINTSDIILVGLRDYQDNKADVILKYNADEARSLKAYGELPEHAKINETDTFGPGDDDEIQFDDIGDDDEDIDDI
UniProt P47814, whole entry: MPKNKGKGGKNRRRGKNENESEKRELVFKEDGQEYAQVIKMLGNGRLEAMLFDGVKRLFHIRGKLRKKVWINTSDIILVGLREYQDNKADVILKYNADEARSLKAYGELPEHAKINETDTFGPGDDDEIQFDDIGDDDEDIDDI

Legend:
[1] = molecular target: eIF1A-RPS10 interaction in HEK293T cells (Homo sapiens, UniProt P46783+P47813); test: Proximity ligation assay (PLA); assay type: cell-based; conditions: 3 h
[2] = molecular target: eIF1A association with the 48S complex (Oryctolagus cuniculus, UniProt P47814); test: In-vitro analysis of 48S formation in rabbit reticulocyte lysate; assay type: biochemical; conditions: sucrose gradient, WB
[3] = molecular target: RPS10 (Homo sapiens, UniProt P46783)
[4] = test system: OVCAR8 cell-derived xenograft; test: Xenografts growth after 1Ais treatment in mice; assay type: in vivo
[5] = 1Ais toxicity in mice; assay type: in vivo, C57 black mice; conditions: for Euthanized Notes: individual animals
[6] = test system: IRF7 5'UTR reporter mutants in HEK293T cells; test: IRF7 C+5 mutants translation (barcoded reporters, polysome vs total RNA); assay type: cell-based; conditions: 20 µM
[7] = molecular target: T1, eIF1A (Homo sapiens, UniProt P47813)
[8] = molecular target: eIF1A without NTT (Homo sapiens, UniProt P47813); test: Fluorescence binding assay with NTT-truncated eIF1A
[9] = molecular target: T1, eIF1A; remark: listed apart in the source
[10] = test system: luciferase reporter mRNA in HEK293T cells; test: Reporter gene mRNA levels by qPCR after 1Ais treatment; assay type: cell-based; conditions: five reporter genes
[11] = test system: CUG/GUG vs AUG start codon luciferase reporters in HEK293T cells; test: Near-cognate AUG starting codon fidelity reporter assay (GUG, CUG vs AUG); assay type: cell-based
[12] = test system: OVCAR8; test: OVCAR8 viability (Cell TiterGlo); assay type: cell-based; conditions: 72 h
[13] = test system: IRF7 5'UTR firefly luciferase reporter in HEK293T cells;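 also: luciferase signal corrected by a co-transfected GFP reporter for transfection efficiency, read after overnight compound exposure, with Long and Short reporters differing in 5'UTR length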
[14] = molecular target: eIF1A-RPS10 interaction (Homo sapiens, UniProt P46783+P47813); test: Split-Renilla luciferase eIF1A-RPS10 interaction screen, dose-response; assay type: biochemical; conditions: read-out: IC50 concentration (µM), IC50 screen; summary table
[15] = test system: uORF-bearing 5'UTR firefly reporters in HEK293T cells; test: uORF reinitiation / leaky scanning firefly reporters; conditions: for normalize to DMSO, AVE: DMSO = 1
[16] = 8 mg/kg i.p. five times a week, 4 weeks

In the case of `O=C1c2ccccc2NC(c2cc(O)c(O)c(Cl)c2)N1c1ccccc1` (centres unmarked) [1A-8214], the “RPS10-eIF1A PLA interaction signal” value [1] is reported as “diminished the RPS10-eIF1A interaction signal to almost background levels”, the “eIF1A association with the 48S” value [2] is reported as “found mostly in the top fractions of the gradient” and the “binding of RPS10” value [3] is reported as “binds both eIF1A and RPS10”. It also gave an IC50 ([3]; read-out: IC50 (line under RPS10 binding data)) of 10 µM, an IC50 ([3]; read-out: IC50 concentration (µM), RPS10, summary table, fluorescence binding assay) of 10 µM and an IC50 ([3]; read-out: RPS10 IC50) of 10 µM. For the same compound, the “treatment-specific side effects in xenograft mice” value [4, 16] was “did not seem to suffer from any treatment-specific side effects”, the “tumor size and weight” value [4, 16] was “clear reduction in tumor size and weight” and the “Weight of tumor, average” value ([4]; group average) was 0.3281. The “Weight of tumor, t.test” value ([4]; t.test vs DMSO) was 0.01946, the “Euthanized Notes” value ([5]; group 4) was 1/4 Spleen dark red and the “Euthanized Notes” value ([5]; group 8) was 1/2 Spleen dark red. The “toxicity in mice (well-being, weight)” value ([5]; up to 8 mg/kg five times a week for 3 weeks) was “no apparent toxicity”, the “inhibitory effect on IRF7-Kozak/C5 compared to IRF7-Kozak” value [6] was “moderately yet significantly increased” and the “MST binding to denatured eIF1A” value ([7]; 4M Urea) was “no binding was detected when eIF1A was denatured”. For the same compound, the “MST binding to eIF1A compared with fluorescence assay” value ([7]; native eIF1A) was “The binding curves and IC-50 were similar”, the “binding to NTT-truncated eIF1A” value [8] was “no binding” and the “NTT truncation IC50” value ([8]; eIF1A without NTT) was “No binding”. For the same compound, the “IC50 concentration (µM), NTT truncation” value ([8]; summary table, fluorescence binding assay) was “No binding”, the “binding of eIF1A” value [9] was “binds both eIF1A and RPS10” and the IC50 ([9]; read-out: IC50 (eIF1A titration block), eIF1A, from the titration data) was 37.4 µM. The IC50 ([9]; read-out: IC50 concentration (µM), WT eIF1A, summary table, fluorescence binding assay) was 37.4 µM, the “effect on reporter mRNA levels” value [10] was “did not exhibit any apparent effect on the mRNA levels” and the “near-cognate start codon translation” value [11] was “increased translation from near-cognate AUG starting codons”. For the same compound, the “CUG vs AUG (%)” value ([11]; CUG start codon reporter relative to AUG reporter (AUG = 100), compound at 20uM (summary head), single-experiment calculation) was 10.3613%, the “GUG vs AUG (%)” value ([11]; GUG start codon reporter relative to AUG reporter (AUG = 100), compound at 20uM (summary head), single-experiment calculation) was 2.395% and the “average CUG and GUG” value ([11]; NUG experiment) was 9.7574. The “CUG Average” value ([11]; NUG experiment, CUG vs AUG reporter) was 16.2895, the “GUG Average” value ([11]; NUG experiment, GUG vs AUG reporter) was 3.225 and the “GUG vs AUG (%) Average” value ([11]; compound at 20uM, summary average of repeats, DMSO control average […]) was 3.23%. For the same compound, the Viability normalized to 0 conc. ([12]; 0.5 uM) was 98.7%, the “Viability summary (raw signal)” value ([12]; 0.5 uM) was 82379.5 and the Viability normalized to 0 conc. ([12]; 1 uM (first line)) was 104%. For the same compound, the “Viability summary (raw signal)” value ([12]; 1 uM (first line)) was 87182, the Viability normalized to 0 conc. ([12]; 1 uM (second line, after 0.5)) was 102% and the “Viability summary (raw signal)” value ([12]; 1 uM (second line, after 0.5)) was 85137.8. The Viability normalized to 0 conc. ([12]; 2.5 uM) was 95.3%, the “Viability summary (raw signal)” value ([12]; 2.5 uM) was 79568.5 and the Viability normalized to 0 conc. ([12]; 5 uM) was 79.4%. For the same compound, the “Viability summary (raw signal)” value ([12]; 5 uM) was 66246.8, the Viability normalized to 0 conc. ([12]; 10 uM) was 55.2% and the “Viability summary (raw signal)” value ([12]; 10 uM) was 46083. The Viability normalized to 0 conc. ([12]; 20 uM) was 28.8%, the “Viability summary (raw signal)” value ([12]; 20 uM) was 24026 and the “OVCAR8 cell viability” value ([12]; refreshed every 24 h) was “reduced OVCAR8 cell viability”. For the same compound, the “IRF7 5'UTR reporter translation” value [13] was “selectively decreased translation from IRF7 5'UTR”, the “Reference vs IRF7 (Final data, Fig. 1E)” value ([13]; 1/Result, relative to DMSO, 20 µM) was 2.956 and the “SHORT (summary - All), normalized to DMSO” value ([13]; Short reporter, 20 µM, individual replicates, outliers excluded, DMSO = 1, listed as 8214) was 0.75 and 1.70. For the same compound, the IC50 [14] was 17 µM, the “effect on uORF / leaky scanning reporters” value ([15]; 20uM (1Ai-5175 at 5uM), overnight) was “more strongly inhibiting the activity of 5'UTR bearing uORF with short re-initiation distance” and the “normalized to DMSO, 46 leaky, average” value ([15]; 46 leaky reporter, average of biological repeats) was 0.798. The “normalized to DMSO, -46, average” value ([15]; -46 reporter, average of biological repeats) was 0.564, the “normalized to DMSO, refference, average” value ([15]; refference reporter, average of biological repeats) was 0.983 and the “normalize to DMSO, AVE” value ([15]; reporter 46, experiment 03.03.24) was 0.3963. The “normalize to DMSO, AVE” value ([15]; reporter 46, experiment 28.2.24) was 0.5635, the “normalize to DMSO, AVE” value ([15]; reporter 46 leaky, experiment 03.03.24) was 0.8395 and the “normalize to DMSO, AVE” value ([15]; reporter 46 leaky, experiment 28.2.24) was 0.666. The “normalize to DMSO, AVE” value ([15]; reporter refference, experiment 28.2.24) was 1.1713 and the “inhibitory effect with extended (long) reinitiation distance” value ([15]; uORF to main ORF distance extended by 49 nt) was “retained”.
